Sequences of proteins named here, by UniProt entry; tags and fusion partners are left off.
UniProt P23443, whole entry T412E: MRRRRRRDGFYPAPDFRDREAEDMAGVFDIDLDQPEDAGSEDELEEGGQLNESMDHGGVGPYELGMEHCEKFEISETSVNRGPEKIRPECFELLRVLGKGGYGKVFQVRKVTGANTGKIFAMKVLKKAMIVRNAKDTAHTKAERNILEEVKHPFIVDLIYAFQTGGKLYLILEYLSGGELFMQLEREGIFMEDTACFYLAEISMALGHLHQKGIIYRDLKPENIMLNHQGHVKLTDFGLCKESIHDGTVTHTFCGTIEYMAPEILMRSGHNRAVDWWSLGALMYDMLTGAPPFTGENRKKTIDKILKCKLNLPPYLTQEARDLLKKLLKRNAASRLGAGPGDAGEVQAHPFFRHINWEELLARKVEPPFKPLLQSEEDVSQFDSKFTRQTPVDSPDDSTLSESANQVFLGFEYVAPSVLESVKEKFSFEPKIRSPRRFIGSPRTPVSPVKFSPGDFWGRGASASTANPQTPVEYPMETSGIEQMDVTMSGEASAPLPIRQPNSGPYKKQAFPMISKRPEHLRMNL

In US9145392B2, “Imidazole amines as modulators of kinase activity” (Merck Patent GmbH, priority 2011, dated 2015):

Biological target: P70S6K (T412E mutant) (Homo sapiens (Human), UniProt P23443, T412E)
Assay: P70S6K enzyme assay
Assay type: biochemical
Conditions: read-out: IC50 p70S6K

- IC50: 0.018 µM
SMILES: Cn1cc(-c2ccc(F)c(C(F)(F)F)c2)nc1C1CCN(c2ncnc(N)c2-c2ccc3[nH]ccc3c2)CC1
